Curated experimental data: water solubility values

Solubility in water is on a log10 molar scale (set defined at 25 °C).
Cells with "n/a" have no entry in this list.

* Nc1nc(N)c2nc(N)c(N)nc2n1 [2,4,6,7-Pteridinetetramine]: water solubility -3.398 (log10 mol/L)
* O=C([O-])C(Cl)(Cl)Cl.[Na+] [Sodium trichloroacetate]: water solubility -0.189 (log10 mol/L)
* CC(Cc1ccc(O)cc1)NCC(O)c1cc(O)cc(O)c1 (stereo not given) [Fenoterol]: water solubility -3.272 (log10 mol/L)
* CN1CCC2=C(C1)C(c1ccccc1)c1ccccc12 (stereo not given) [Phenindamine]: water solubility -3.975 (log10 mol/L)
* FC(F)=C(F)Cl [Chlorotrifluoroethylene]: water solubility -2.486 (log10 mol/L)
* ClCc1c(Cl)cccc1Cl [alpha-2,6-Trichlorotoluene]: water solubility -3.747 (log10 mol/L)
* O=C1c2ccccc2C(=O)N1SC1CCCCC1 [N-(Cyclohexylthio)phthalimide]: water solubility -4.354 (log10 mol/L)
* S=P(N1CCOCC1)(N1CCOCC1)N1CCOCC1 [Morpholine, 4,4',4''-phosphinothioyldynetris- (9CI)]: water solubility -2 (log10 mol/L)
* COC(N)=O [Methyl carbamate]: water solubility 0.97 (log10 mol/L)
* C[C@]12CC[C@H]3[C@@H](CCC4=CC(=O)CC[C@@H]43)[C@@H]1CC[C@@H]2OC(=O)CCc1ccccc1 [Nandrolone phenpropionate]: water solubility -5.948 (log10 mol/L)
* c1cc(OCC2CO2)cc(OCC2CO2)c1 (stereo not given) [Diglycidyl resorcinol ether]: water solubility -3.126 (log10 mol/L)
* CC(=O)OC1CCC2C3CCC4=CC(=O)CCC4(C)C3CCC12C (stereo not given) [3-Oxoandrost-4-en-17-yl acetate]: water solubility -5.18 (log10 mol/L)
* CCC(=O)c1ccc(N)cc1 [4'-Aminopropiophenone]: water solubility -2.63 (log10 mol/L)
* COc1cc(Oc2ccc(Cl)cc2Cl)ccc1[N+](=O)[O-] [Chlomethoxyfen]: water solubility -6.02 (log10 mol/L)
* CC[C@H]1CN2CC[C@H]1C[C@@H]2[C@@H](O)c1ccnc2ccccc12 [Hydrocinchonine]: water solubility -2.63 (log10 mol/L)
* CCCCC(CC)C(=O)NC(N)=O (stereo not given) [1-(2-Ethylhexanoyl)urea]: water solubility -2.668 (log10 mol/L)
* CCSC(C)CC1CC(=O)C(/C(CC)=N/OC/C=C/Cl)=C(O)C1 (stereo partly drawn) [Clethodim]: water solubility -1.821 (log10 mol/L)
* CC(C)(N)Cc1ccccc1 [Phentermine]: water solubility -2.295 (log10 mol/L)
* COC(=O)N(C(=O)N1CO[C@@]2(C(=O)OC)Cc3cc(Cl)ccc3C2=N1)c1ccc(OC(F)(F)F)cc1 [Indoxacarb]: water solubility -6.42 (log10 mol/L)
* CCCCCOC(=O)c1ccccc1C(=O)OCCCCC [Dipentyl phthalate]: water solubility -3.486 (log10 mol/L)
* CC(C)=CCN1CC[C@]2(C)c3cc(O)ccc3C[C@H]1[C@H]2C (racemic): water solubility -3.801 (log10 mol/L)
* O=C(O)C(F)(F)C(F)(F)C(F)(F)C(F)(F)C(F)(F)C(F)(F)C(F)(F)F [Perfluorooctanoic acid]: water solubility -1.913 (log10 mol/L)
* CCC1(c2ccccc2)C(=O)N(CC(O)CO)C(=O)N=C1O (stereo not given): water solubility -1.79 (log10 mol/L)
* CCC(C)OC(N)=O (stereo not given): water solubility -0.3 (log10 mol/L)
* O=Nc1ccccc1 [Nitrosobenzene]: water solubility -1.699 (log10 mol/L)
* FC(F)=C(F)OC(F)(F)F [Trifluoro(trifluoromethoxy)ethylene]: water solubility -3.722 (log10 mol/L)
* O=S(=O)(O)C(F)(F)C(F)(F)C(F)(F)C(F)(F)C(F)(F)C(F)(F)C(F)(F)C(F)(F)F [Perfluorooctanesulfonic acid]: water solubility -2.943 (log10 mol/L)
* C[C@]12CCC3C(CC[C@]4(O[C@@H]5OC(CO)[C@@H](O)C(O)C5O)C=CCC[C@]34C=O)[C@@]1(O)CC[C@@H]2c1ccc(=O)oc1 (stereo not given in full): water solubility -2.226 (log10 mol/L)
* NCCNCC(N)CCC/N=C(\N)N[N+](=O)[O-].O=C(O)C(F)(F)F.O=C(O)C(F)(F)F.O=C(O)C(F)(F)F (stereo partly drawn): water solubility -1.071 (log10 mol/L)
* CCCCC1(CC(C)C)C(=O)NC(=O)NC1=O [5-Butyl-5-isobutyl-pyrimidine-2,4,6-trione]: water solubility -2.506 (log10 mol/L)
* CC(=O)Nc1ccc(Cl)cc1 [4-Chloroacetanilide]: water solubility -2.84 (log10 mol/L)
* CC(=O)OC(c1ccc(Cl)c(Cl)c1)C(Cl)(Cl)Cl (stereo not given) [2,2,2-Trichloro-1-(3,4-dichlorophenyl)ethyl acetate]: water solubility -3.83 (log10 mol/L)
* CCCC(=O)NC(Cc1ccc(O)cc1)C(=O)NCCCCNCCCNCCCN.O=C(O)C(F)(F)F.O=C(O)C(F)(F)F.O=C(O)C(F)(F)F (stereo not given): water solubility -1.891 (log10 mol/L)

3 of these entries, quoted again:

| SMILES | name | water solubility (log10 mol/L) |
|---|---|---|
| CC(C)=CCN1CC[C@]2(C)c3cc(O)ccc3C[C@H]1[C@H]2C (racemic) | n/a | -3.801 |
| CCSC(C)CC1CC(=O)C(/C(CC)=N/OC/C=C/Cl)=C(O)C1 (stereo partly drawn) | Clethodim | -1.821 |
| FC(F)=C(F)Cl | Chlorotrifluoroethylene | -2.486 |

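The OPERA project collected these measurements from public sources as training and test data for property models. A listed value is a point estimate from one report or more. How each value was measured is not recorded, so precision varies. The measured form (salt, isomer or mixture) is not always the one drawn. Some upstream entries may be estimates or bounds without being marked so.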

Data: OPERA 2.9 data sets, kmansouri/OPERA on GitHub.